According to ChEMBL document CHEMBL1811860, “Synthesis and inhibitory activity of sialic acid derivatives targeted at viral sialate-O-acetylesterases” (Eur J Med Chem, 2011):

Assay: Inhibition of Influenza C virus C/JJ/50 9-SOAE expressed in Sf9 cells assessed as inhibition of hydrolysis of pNPA at 0.5 mM

**Q.** For `C=CCO[C@]1(C(=O)O)C[C@H](O)[C@@H](NC(C)=O)[C@H]([C@H](O)[C@H](O)COC)O1`, which inhibition is on record?
**A.** 7.01%
